{"source": "patent US8575183B2", "about": "“Heterocyclic compounds and their uses” (priority 2010, dated 2013)", "origin": "cited, not measured here", "test_system": "Class I PI3 kinase isoforms", "conditions": "cited from earlier work"}
{"smiles": "Cc1ccccc1-n1c(Cn2cnc3c(N)ncnc32)nc2cccc(C)c2c1=O", "note": "[IC87114]", "values": [{"measurement": "selectivity against p110α", "setting": "p110δ against p110α", "value": "greater than 100 fold"}, {"measurement": "selectivity against p110β", "setting": "p110δ against p110β", "value": 52, "unit": "fold"}, {"measurement": "selectivity against p110γ", "setting": "p110δ against p110γ", "value": "approx. 8 fold"}]}
